Test results published in patent publication US20140045779A1, “COMPOUNDS CONTAINING AN ALICYCLIE STRUCTURE AND ANTI-TUMOR APPLICATION” (priority 2011, published 2014).

Assays:
[1] = tested on: human pancreatic cancer cell line Panc-1; assay: cells; settings: PANC-1, 48 h, read-out: Growth Inhibition of cell line IC50, Panc-1
[2] = tested on: human colorectal cancer cell line HT29; assay: cells; settings: HT-29, 48 h, read-out: Growth Inhibition of cell line IC50, HT29
[3] = tested on: human lung cancer cell line NCI-H460; assay: In vitro anti-cancer cell experiment (MTT), NCI-H460; settings: NCI-H460, 48 h, read-out: Growth Inhibition of cell line IC50, NCI-H460

SMILES	IC50 [1] [µg/mL]	IC50 [2] [µg/mL]	IC50 [3] [µg/mL]
O=c1[nH]cc(F)c(=O)[nH]1 [Example 5-FU, 5-fluorouracil, reference compound]	3.33 (≈ 25.6 µM)		
CCCCCNC12CN3CN(CN(C3)C1)C2 [Example 68, (1s,3s,5s)-N-pentyl-1,3,5-triazaadamantan-7-amine]	3.4 (≈ 15.2 µM)	1.03 (≈ 4.59 µM)	3.38 (≈ 15.1 µM)
O=C1C2CC3CC(C2)OC1C3 (stereo not shown) [Example 43, 2-oxaadamantan-4-one]	26.8 (≈ 176 µM)	54.1 (≈ 356 µM)	13.7 (≈ 89.7 µM)

The next lines start with the values.

IC50 [1] [µg/mL]	IC50 [2] [µg/mL]	IC50 [3] [µg/mL]	SMILES
3.26 (≈ 6.73 µM)	3.62 (≈ 7.47 µM)	4.89 (≈ 10.1 µM)	COc1cc(C23CN4CN(C2)CC(c2cc(OC)c(OC)c(OC)c2)(C4)C3=O)cc(OC)c1OC [Example 62, (1r,3r,5r,7r)-5,7-bis(3,4,5-trimethoxyphenyl)-1,3-diazaadamantan-6-one]
17.6 (≈ 114 µM)	38.3 (≈ 249 µM)	17.2 (≈ 112 µM)	OC12CC3CC(CC(C3)O1)C2 [Example 47, 2-oxaadamantan-1-ol]

≈ marks a conversion by molar mass, not a printed value.
